Experimental data taken from patent US12528818B2, “Compositions and methods for inhibition of RAS” (Leidos Biomedical Research, Inc., priority 2021, dated 2026).

Tests used:
[1] = biological target: GDP-loaded KRAS4b (amino acids 1-169) G12C/C118S protein (Homo sapiens, UniProt P01116, C118S/G12C); assay: Covalent cysteine 12 modification by MALDI-TOF MS, GDP-loaded KRAS G12C; assay type: biochemical; settings: 15 minutes reaction time
[2] = biological target: GppNHp-loaded KRAS4b (amino acids 1-169) G12C/C118S protein (Homo sapiens, UniProt P01116, C118S/G12C); assay: Covalent cysteine 12 modification by MALDI-TOF MS, GppNHp-loaded KRAS G12C; assay type: biochemical; settings: 15 minutes reaction time
[3] = biological target: Avi-KRAS G12C (1-169) GppNHp/RAF1 RBD-3xFLAG (52-151) (Homo sapiens, UniProt P01116, G12C); assay: biochemical; settings: Raf1-GppNHp-KRAS G12C disruption, Raf1 RBD-KRAS G12C-GppNHp disruption assay IC50
[4] = compounds 94 or before using 5 μM proteins
[5] = compound 95 or later using 1 μM proteins

GDP-KRAS G12C percent of modification [1, 4] | GppNHp-KRAS G12C percent of modification [2, 4] | IC50 [3] [nM] | GDP-KRAS G12C percent of modification [1, 5] | GppNHp-KRAS G12C percent of modification [2, 5] | Compound
A (percent of modification ≥70%) | B (50≤percent of modification <70%) |  |  |  | N#CC[C@H]1CN(c2ncnc3c(F)c(-c4ccc(F)c5sc(N)nc45)c(Cl)cc23)CCN1C(=O)CCl [Compound 13]
 |  | 500 to 5000 |  |  | C=CC(=O)N1CC(N(c2nc(OC[C@@H]3CCCN3C)nc3c(F)c(-c4ccc(F)c5sc(N)nc45)c(Cl)cc23)C(C)C)C1 [Compound 159]
 |  |  | A (percent of modification ≥70%) | D (percent of modification <10%) | C=CC(=O)N1CCN(c2ncnc3c(F)c(-c4ccc(F)c5sc(N)nc45)c(C4(C#N)CC4)cc23)CC1 [Compound 96]
 |  | < 500 |  |  | C=CC(=O)N1CC[C@@H](N(C)c2nc(OC[C@@H]3CCCN3C)nc3cc(-c4ccc(F)c5sc(N)c(C#N)c45)c(F)cc23)[C@H]1C [Compound 417]
 |  |  | A (percent of modification ≥70%) | D (percent of modification <10%) | C=CC(=O)N1CCN(c2nc(OC[C@@H]3CCCN3C)nc3c(F)c(-c4ccc(F)c5sc(N)nc45)c(OC(F)(F)F)cc23)CC1 [Compound 163]
 |  |  | B (50≤percent of modification <70%) | D (percent of modification <10%) | CC#CC(=O)N1CC[C@@H]2[C@H]1CN2c1nc(OCC23CCCN2CCC3)nc2c(F)c(-c3ccc(F)c4sc(N)nc34)c(-c3ccoc3)cc12 [Compound 120]
 |  | < 500 |  |  | C=CC(=O)N1CC[C@@H](N(C)c2nc(OC[C@@H]3CCCN3C)nc3cc(-c4ccc(F)c5sc(N)c(C#N)c45)c(F)cc23)[C@H]1COC [Compound 441]
 |  |  | C (10%≤percent of modification <50%) | C (10%≤percent of modification <50%) | C=CC(=O)N1CC(Nc2nc(OCC34CCCN3CCC4)nc3c(F)c(-c4ccc(F)c5sc(N)nc45)c(Cl)cc23)[C@H]1C (stereo partly shown) [Compound 213]
 |  | < 500 |  |  | C=CC(=O)N1CCC(N(C)c2nc(OC[C@@H]3CC4(CC4)CN3C)nc3c(F)c(-c4ccc(F)c5sc(N)c(C#N)c45)c(C(F)(F)F)cc23)[C@H]1C (stereo partly shown) [Compound 409]
A (percent of modification ≥70%) | D (percent of modification <10%) |  |  |  | C=CS(=O)(=O)NCCNc1ncnc2c(F)c(-c3ccc(F)c4sc(N)nc34)c(Cl)cc12 [Compound 3]
C (10%≤percent of modification <50%) | D (percent of modification <10%) |  |  |  | C=CS(=O)(=O)N1CCN(c2ncnc3c(F)c(-c4ccc(F)c5sc(N)nc45)c(Cl)cc23)C[C@@H]1CC#N [Compound 17]
C (10%≤percent of modification <50%) | D (percent of modification <10%) |  |  |  | C=C(F)C(=O)N1CC(Nc2ncnc3c(F)c(-c4ccc(F)c5sc(N)nc45)c(Cl)cc23)C1 [Compound 19, 1-[3-[[7-(2-amino-7-fluoro-1,3-benzothiazol-4-yl)-6-chloro-8-fluoro-quinazolin-4-yl]amino]azetidin-1-yl]-2-fluoro-prop-2-en-1-one]
 |  | 5000 to 20000 |  |  | C=CC(=O)N1CC(Nc2nc(OC[C@H]3CCCN3CCC#N)nc3c(F)c(-c4ccc(F)c5sc(N)nc45)c(Cl)cc23)C1 [Compound 160]
 |  | 500 to 5000 |  |  | C=CC(=O)N1CC[C@@H](N(C)c2nc(OCCO)nc3c(F)c(-c4ccc(F)c5sc(N)c(C#N)c45)ccc23)[C@H]1C [Compound 468]
 |  |  | A (percent of modification ≥70%) | B (50≤percent of modification <70%) | C=CC(=O)N1CCC(N(C)c2nc(OC[C@@H]3CCCN3CC)nc3c(F)c(-c4ccc(F)c5sc(N)c(C#N)c45)c(C(F)(F)F)cc23)[C@H]1C (stereo partly shown) [Compound 451]
C (10%≤percent of modification <50%) | D (percent of modification <10%) |  |  |  | C=CC(=O)NCCNc1ncnc2c(O)c(-c3ccc(F)c4sc(N)nc34)c(Cl)cc12 [Compound 14]
A (percent of modification ≥70%) | D (percent of modification <10%) |  |  |  | C=CC(=O)N1CCN(c2ncnc3c(O)c(-c4ccc(F)c5sc(N)nc45)c(Cl)cc23)CC1 [Compound 10]
 |  |  | A (percent of modification ≥70%) | C (10%≤percent of modification <50%) | C=CC(=O)N1CCN(c2nc(OCC34CCCN3C[C@H](OC)C4)nc3c(F)c(-c4ccc(F)c5sc(N)nc45)c(C(F)(F)F)cc23)CC1 (stereo partly shown) [Compound 209]
A (percent of modification ≥70%) | C (10%≤percent of modification <50%) |  |  |  | C=CC(=O)N1CCN(c2ncnc3c(F)c(-c4ccc(F)c5sc(N)nc45)c(Cl)cc23)C[C@@H]1CC#N [Compound 12]
C (10%≤percent of modification <50%) | D (percent of modification <10%) |  |  |  | Nc1nc2c(-c3c(Cl)cc4c(NCCNC(=O)CCl)ncnc4c3O)ccc(F)c2s1 [Compound 9]
D (percent of modification <10%) | D (percent of modification <10%) |  |  |  | C=C(F)C(=O)NCCNc1ncnc2c(O)c(-c3ccc(F)c4sc(N)nc34)c(Cl)cc12 [Compound 15]
 |  |  | C (10%≤percent of modification <50%) | D (percent of modification <10%) | C=CC(=O)N1CCN(c2ncnc3c(F)c(-c4ccc(F)c5sc(N)nc45)c(C4CCC4)cc23)CC1 [Compound 122]
 |  |  | C (10%≤percent of modification <50%) | C (10%≤percent of modification <50%) | C=CC(=O)N1CC(N(c2nc(OCC3CCCN3C)nc3c(F)c(-c4ccc(F)c5sc(N)nc45)c(Cl)cc23)C(C)C)C1 (stereo not shown) [Compound 159]
A (percent of modification ≥70%) | D (percent of modification <10%) |  |  |  | CC#CC(=O)N1CC(Nc2ncnc3c(F)c(-c4ccc(F)c5sc(N)nc45)c(Cl)cc23)C1 [Compound 18]
A (percent of modification ≥70%) | C (10%≤percent of modification <50%) |  |  |  | Nc1nc2c(-c3c(Cl)cc4c(NCCNC(=O)CCl)ncnc4c3F)ccc(F)c2s1 [Compound 2]
A (percent of modification ≥70%) | D (percent of modification <10%) |  |  |  | C=CS(=O)(=O)N1CCN(c2ncnc3c(F)c(-c4ccc(F)c5sc(N)nc45)c(Cl)cc23)CC1 [Compound 11]
 |  |  | A (percent of modification ≥70%) | C (10%≤percent of modification <50%) | C=CC(=O)N1C[C@H](C)N(c2nc(OC[C@@]34CCCN3C[C@H](F)C4)nc3c(F)c(-c4ccc(F)c5sc(N)nc45)c(OC(F)F)cc23)C[C@H]1C [Compound 280]
A (percent of modification ≥70%) | D (percent of modification <10%) |  |  |  | C=CC(=O)NCCNc1ncnc2c(F)c(-c3ccc(F)c4sc(N)nc34)c(Cl)cc12 [Compound 1]
 |  |  | C (10%≤percent of modification <50%) | D (percent of modification <10%) | CC#CC(=O)N1CC[C@@H]2[C@H]1CN2c1nc(OCC23CCCN2CCC3)nc2c(F)c(-c3ccc(F)c4sc(N)nc34)c(Cl)cc12 [Compound 118]
